Compounds with a hit are over-represented: about 16% of the library has one in this group of screens.
uPA surface inh: blocks generation of uPA at the cell surface | 0.31% of 330,000 active | cell surface uPA generation assay, qHTS | Potency, µM (titrated, usually from 38.3 µM), for the others: at the highest dose activity change, negative = inhibition, most hits filed as inhibitors; active = well fitted inhibition curve with a large enough effect; inconclusive = small, poorly fitted or top-dose-only effect; inactive = no such curve, though single readings can be large or run the other way; tested in mouse RAW 264.7 cells; note: potency is the fitted concentration of half-maximal effect; % is set by controls: 0 for no effect and ±100 for the full control effect; nearly all actives have a fitted effect of over 55% in size
DT40 TDP1 CPT: growth inhibition of DT40 Tdp1-/-;hTDP1 cells with camptothecin (screen for TDP1 inhibitors). chicken DT40 Tdp1-/-;hTDP1 cells + 20 nM CPT, ATP luminescence, 48 h. Potency, µM (top dose mostly 46.2 µM), for the others: at the highest dose activity change, negative = growth inhibition, actives largely listed as inhibitors. 12% of 420,000 active; note: potency is the fitted concentration of half-maximal effect; % is set by controls: 0 for no effect and ±100 for the full control effect; nearly all actives have a fitted effect of over 55% in size
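Chicken DT40 Tdp1-/- cells complemented with human TDP1, 400 cells/well, exposed to compounds plus 20 nM camptothecin for at least 48 h at 37 C; viability read as ATP content by CellTiter-Glo luminescence.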
TDP1 inh: TDP1 (human) enzyme inhibition | 0.28% of 350,000 active | recombinant TDP1, AlphaScreen DNA substrate cleavage | Potency, µM (doses to about 130 µM), inactives show top-dose activity change, negative = inhibition, hits mostly inhibitors; note: potency is the fitted concentration of half-maximal effect; % is set by controls: 0 for no effect and ±100 for the full control effect; nearly all actives have a fitted effect of over 40% in size
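AlphaScreen read-out: signal falls as enzyme removes the 3' tyrosine-FITC from a 5'-biotinylated DNA oligo (15 nM, 5 min, RT). Enzyme was E. coli-made recombinant Tdp1 at 1 nM, exposed to compound for 15 min beforehand; beads 10 ug/ml, 10 min.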
miR-21 reporter: raises the signal of a miR-21 reporter | AID 2288 | 340,000 tested, under 10 active | Potency, µM (series often up to 38.3 µM), without a hit: at the highest dose reporter change, positive = more light | HeLa miR-21 FLuc reporter, luciferase, 48 h; active = well fitted rising curve with a large enough effect; inconclusive = small, poorly fitted or top-dose-only effect; inactive = no such curve, though single readings can be large or run the other way;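 further: % of control where 0% means no effect; miR-21 action dims this reporter so a rising signal means less miR-21 action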
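HeLa miR-21-FLuc reporter line, endogenous miR-21; 2000 cells/well in DMEM/10% FBS; compound titration up to ~40uM final, 48 h, 37 degree Celsius; luciferase detection reagent, 15 min lysis, CCD luminescence.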
DT40 TDP1 no CPT: qHTS for Inhibitors of human tyrosyl-DNA phosphodiesterase 1 (TDP1): qHTS in cells in absence of CPT. Potency, µM (titrated, usually from 46.2 µM), for inactives: top-dose activity change, negative = growth inhibition, actives largely listed as inhibitors. DT40 Tdp1-/- hTDP1 cells, no CPT, ATP luminescence, 48 h. 15% of 420,000 active; note: potency is the fitted concentration of half-maximal effect; % is set by controls: 0 for no effect and ±100 for the full control effect; nearly all actives have a fitted effect of over 55% in size
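Chicken DT40 Tdp1-/- cells stably complemented with human TDP1 were seeded at 400 cells/well with DMSO in place of 20 nM camptothecin. After compound pinning, cells grew at least 48 hr at 37 °C; viability read by CellTiter-Glo luminescence.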
* hit, by the source's call; ? = inconclusive; . = no result given; [ ] = dose if it differs, or a comment. Unless noted, calls come from the whole dose curve; as a rule, active = well fitted curve in the direction sought with a large enough effect; inconclusive = small, poorly fitted or top-dose-only effect, or another doubt; inactive = no such curve, though single readings can be large; an effect the other way counts as inactive or inconclusive.

1) Cc1nc2scc(C)n2c(=O)c1S(=O)(=O)NCCc1ccccc1
2) CN(C)Cc1c[nH]c2nccnc12
3) Cc1cccc(NC(=S)N2CCC(C(=O)c3ccc(F)cc3)CC2)c1C
4) Cc1ccc(CNC(=O)[C@@H]2CCC(=O)N2Cc2ccco2)cc1
5) COCCN(C(=O)COC(=O)c1cc(C)n(-c2ccccc2)c1C)c1c(N)n(Cc2ccccc2)c(=O)[nH]c1=O
6) COc1ccc(-c2sc3cc4c(cc3c2-c2ccc(OCCN3CCOCC3)cc2)OCO4)cc1
screen / no.	1	2	3	4	5	6
DT40 TDP1 no CPT	?	-2%	-36%	-5%	?	?
uPA surface inh	-2%	.	2%	0%	0%	1%
DT40 TDP1 CPT	?	6%	-41%	-9%	3%	?
TDP1 inh	0%	.	6%	-4%	6%[0.505 µM]	6%
miR-21 reporter	0%	.	1%	1%	.	.

Filtered by structure: those above containing nitrogen in an aromatic ring
1) Cc1nc2scc(C)n2c(=O)c1S(=O)(=O)NCCc1ccccc1
2) CN(C)Cc1c[nH]c2nccnc12
5) COCCN(C(=O)COC(=O)c1cc(C)n(-c2ccccc2)c1C)c1c(N)n(Cc2ccccc2)c(=O)[nH]c1=O
screen / no.	1	2	5
DT40 TDP1 no CPT	?	-2%	?
uPA surface inh	-2%	.	0%
DT40 TDP1 CPT	?	6%	3%
TDP1 inh	0%	.	6%[0.505 µM]
miR-21 reporter	0%	.	.

Next part.
7) COc1ccc(-c2sc3ccc(OC)cc3c2C#Cc2cncn2C)cc1
8) COc1ccc(-c2sc3ccc(N4CCOCC4)cc3c2C#CC2(O)CCCCC2)cc1
9) COc1ccc(-c2sc3cc4c(cc3c2C#Cc2cncn2C)OCO4)cc1
10) COc1ccc(-c2sc3cc4c(cc3c2C#CC2(N)CCCCC2)OCO4)cc1
11) COc1ccc(-c2oc3ccccc3c2C#Cc2cncn2C)cc1
12) COc1cccc(-c2sc3ccc(OC)cc3c2C#CC2(O)CCCCC2)c1
screen / no.	7	8	9	10	11	12
DT40 TDP1 no CPT	?	?	15µM*	12µM*	18µM*	23µM*
uPA surface inh	-21%	-50%	5%	-25%	?	0%
DT40 TDP1 CPT	?	?	26µM*	8.2µM*	16µM*	?
TDP1 inh	2%	2%	1%	0%	1%	-6%
miR-21 reporter	.	.	.	.	.	.

13) CC1CCC(NC(=O)c2cc(Cl)nc3ccccc23)CC1 (centres undefined)
14) COc1cc(OC)cc(-c2sc3ccc(OC)cc3c2C#CC2(N)CCCCC2)c1
15) COc1cc(OC)cc(-c2sc3ccc(OC)cc3c2C#CC(C)(C)O)c1
16) O=C1CN(C(=O)NCCC(=O)NC2CCCCC2)c2ccccc2N1
17) CC1=C(C(=O)Nc2ccccc2C)C(c2cccnc2)n2nc(SCc3ccccc3F)nc2N1 (centres undefined)
18) CC1=C(C(=O)Nc2ccc(C)cc2C)C(c2ccc(Cl)cc2)n2nc(C(=O)OC(C)C)nc2N1 (centres undefined)
screen / no.	13	14	15	16	17	18
DT40 TDP1 no CPT	-24%	15µM*	-12%	8%	-23%	16µM*
uPA surface inh	10%	-24%	14%	23%	.	3%
DT40 TDP1 CPT	0%	?	-15%	-3%	-17%	?
TDP1 inh	0%	0%	-6%	4%	6%	1%
miR-21 reporter	.	.	.	0%	8%	-1%

19) COc1ccccc1NC(=O)C1=C(C)Nc2nc(SCc3cc(C)ccc3C)nn2C1c1ccccc1 (centres undefined)
20) CC1=C(C(=O)Nc2ccccc2)C(c2ccc(F)cc2)n2nc(SCc3cc(C)ccc3C)nc2N1 (centres undefined)
21) COc1ccccc1NC(=O)C1=C(C)Nc2nc(SCc3ccccc3F)nn2C1c1cccnc1 (centres undefined)
22) COc1ccccc1NC(=O)C1=C(C)Nc2nc(SCc3ccccc3)nn2C1c1cccnc1 (centres undefined)
23) CCN(CC(=O)N1CCN(C)CC1)S(=O)(=O)c1ccc(Cl)cc1
24) COc1ccccc1NC(=O)C1CCN(S(C)(=O)=O)CC1
screen / no.	19	20	21	22	23	24
DT40 TDP1 no CPT	-79%	-17%	10µM*	?	-23%	8%
uPA surface inh	.	.	.	.	1%	8%
DT40 TDP1 CPT	12µM*	-17%	15µM*	21µM*	3%	4%
TDP1 inh	0%	9%	9%	3%	7%	.
miR-21 reporter	0%	6%	-1%	3%	-1%	2%

25) O=C(c1ccc(N2CCCC2)c([N+](=O)[O-])c1)N1CCN(S(=O)(=O)c2ccc(Cl)cc2)CC1
26) Cc1cc(C(=O)Nc2cccc3c2O[C@@H](CN(C)S(C)(=O)=O)[C@H](C)CN([C@@H](C)CO)C3=O)n(C)n1
27) COc1cccc(-c2cn3c(n2)sc2cc(C(=O)NC4CCCCCC4)ccc23)c1
28) O=[N+]([O-])c1cnn(-c2nc(-c3ccccc3)cc(C(F)(F)F)n2)c1
29) CC1=C(C(=O)Nc2ccc(C)cc2C)C(CC(C)C)n2nc(SCc3ccccc3C)nc2N1 (centres undefined)
30) CC1=C(C(=O)Nc2ccc(Cl)cc2)C(CC(C)C)n2nc(SCc3ccccc3C)nc2N1 (centres undefined)
screen / no.	25	26	27	28	29	30
DT40 TDP1 no CPT	?	-5%	?	-11%	12µM*	?
uPA surface inh	0%	3%	.	7%	.	.
DT40 TDP1 CPT	?	-5%	?	-7%	10µM*	?
TDP1 inh	6%	0%	-3%	-1%	2%[12.3 µM]	2%
miR-21 reporter	.	.	0%	-4%	4%	2%

31) COc1ccccc1NC(=O)C1=C(C)Nc2nc(SCc3ccccc3)nn2C1c1cccc(O)c1 (centres undefined)
32) COc1cccc(CSc2nc3n(n2)C(c2ccccc2C)C(C(=O)Nc2ccccc2OC)=C(C)N3)c1 (centres undefined)
33) CCCOC(=O)c1ccc(Nc2nc3ccccc3nc2-n2nc(C)cc2C)cc1
34) CCOc1ccc(NC(=O)c2oc3ccccc3c2NC(=O)Cc2ccc(OC)c(OC)c2)cc1
35) COC(=O)[C@]12CCCCC=C1N(CCc1ccc(OC)c(OC)c1)C(=O)[C@H](CC(=O)NCCCN1CCCC1=O)C2
36) COC(=O)[C@]12CCCCC=C1N(CCc1ccc(OC)c(OC)c1)C(=O)[C@H](CC(=O)NCc1cccc(C(F)(F)F)c1)C2
screen / no.	31	32	33	34	35	36
DT40 TDP1 no CPT	23µM*	?	-5%	?	-16%	16µM*
uPA surface inh	.	.	.	.	.	.
DT40 TDP1 CPT	?	?	-18%	?	10%	?
TDP1 inh	6%	5%	5%	1%	.	.
miR-21 reporter	?	12%	-2%	-36%	.	.

37) COC(=O)[C@]12CCCCC=C1N(CCc1ccc(OC)c(OC)c1)C(=O)[C@H](CC(=O)NCCc1ccccc1OC)C2
38) COC(=O)[C@@]12C[C@@H](CC(=O)NCc3cccc(C(F)(F)F)c3)C(=O)N(CCc3ccc(OC)c(OC)c3)C1=CCC(C)(C)C2
39) COC(=O)[C@]12CCCCC=C1N(CCc1ccc(OC)c(OC)c1)C(=O)[C@H](CC(=O)NCc1ccc(OC)c(OC)c1)C2
40) O=C(COc1ccccc1)Nc1c2c(nn1-c1ccccc1)CS(=O)(=O)C2
41) CC(C)(C)c1ccc(-c2nc3[nH]c(=O)cc(NC(=O)c4ccco4)n3n2)cc1
42) COC(=O)[C@]12CCCCC=C1N(CCc1ccc(OC)c(OC)c1)C(=O)[C@H](CC(=O)N1CCC(c3ccccc3)CC1)C2
screen / no.	37	38	39	40	41	42
DT40 TDP1 no CPT	18µM*	12µM*	16µM*	25%	?	8.2µM*
uPA surface inh	.	.	.	6%	-17%	.
DT40 TDP1 CPT	?	9.2µM*	29µM*	14%	-9%	8.2µM*
TDP1 inh	.	.	.	3%	1%	.
miR-21 reporter	.	.	.	-1%	-26%	.

From PubChem BioAssay
